Target: MEK1 (Mus musculus, UniProt P31938)
Assay type: cell-based

SMILES: COc1cccc(-c2cc(=O)c3ccccc3o2)c1N [PD98059]
- loss of NH2-terminal epitopes of MEK1 (cleavage of intracellular MEK1): not

— patent US20040136975A1 (priority 2004, published 2004)
